One assay concerns the target Acetylcholinesterase (Electrophorus electricus, UniProt O42275). The assay is described as follows: Inhibition of electric eel AChE by Ellman's method. Background: DTNB colorimetry detects thiols as they appear.
For a further assay, the target named is Cholinesterase (Equus caballus, UniProt P81908). Kind of assay: Inhibition of horse BChE.

The chains behind the UniProt entries cited, without tags or fusion partners. Where a name states a change or a piece, a line headed by the entry shows the natural chain unless it says otherwise.
UniProt O42275: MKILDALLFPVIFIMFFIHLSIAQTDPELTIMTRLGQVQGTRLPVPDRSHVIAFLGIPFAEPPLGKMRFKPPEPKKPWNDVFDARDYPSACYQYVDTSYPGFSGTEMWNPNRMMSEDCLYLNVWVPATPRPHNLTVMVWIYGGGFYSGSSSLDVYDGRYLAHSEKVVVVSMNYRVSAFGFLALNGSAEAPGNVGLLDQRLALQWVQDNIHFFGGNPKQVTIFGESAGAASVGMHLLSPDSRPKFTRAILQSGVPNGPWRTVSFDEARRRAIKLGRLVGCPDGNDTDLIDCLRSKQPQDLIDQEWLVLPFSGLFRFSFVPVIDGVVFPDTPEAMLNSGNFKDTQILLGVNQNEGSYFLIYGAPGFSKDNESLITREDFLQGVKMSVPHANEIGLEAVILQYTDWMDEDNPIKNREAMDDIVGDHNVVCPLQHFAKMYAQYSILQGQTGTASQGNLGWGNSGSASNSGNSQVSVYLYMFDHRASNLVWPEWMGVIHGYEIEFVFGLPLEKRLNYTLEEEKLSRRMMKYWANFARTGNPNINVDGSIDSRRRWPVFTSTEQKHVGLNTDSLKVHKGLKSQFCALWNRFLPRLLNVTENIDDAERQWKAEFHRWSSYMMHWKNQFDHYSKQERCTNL
UniProt P81908, whole entry: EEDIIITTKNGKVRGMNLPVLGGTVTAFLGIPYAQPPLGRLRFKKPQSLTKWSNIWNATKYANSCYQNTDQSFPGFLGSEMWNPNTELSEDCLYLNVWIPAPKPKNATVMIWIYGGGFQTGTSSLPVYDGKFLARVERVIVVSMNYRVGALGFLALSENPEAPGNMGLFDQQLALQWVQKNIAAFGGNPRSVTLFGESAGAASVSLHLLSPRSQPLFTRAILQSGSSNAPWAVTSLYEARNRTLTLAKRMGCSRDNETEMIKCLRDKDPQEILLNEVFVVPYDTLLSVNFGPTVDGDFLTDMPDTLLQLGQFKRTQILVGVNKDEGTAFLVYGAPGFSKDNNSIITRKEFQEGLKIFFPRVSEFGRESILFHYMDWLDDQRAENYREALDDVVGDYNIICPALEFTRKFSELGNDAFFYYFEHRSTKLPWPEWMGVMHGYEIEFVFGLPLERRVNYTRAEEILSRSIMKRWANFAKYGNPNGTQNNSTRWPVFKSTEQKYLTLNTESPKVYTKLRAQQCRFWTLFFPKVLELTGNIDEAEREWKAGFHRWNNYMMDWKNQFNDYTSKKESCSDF

pIC50: −log10 of the molar value.

On to `CNC(=O)Oc1ccc2c(c1)[C@]1(C)CCN(C)[C@@H]1N2C` [PHYSOSTIGMINE], for which the negative-log IC50 (pIC50) (as a rule, −log10 of the IC50, conventionally taken in molar units) on Acetylcholinesterase is 7.39; against Cholinesterase, 6.07.

Values taken from ChEMBL document CHEMBL1155699, “Steroidal alkaloids from the leaves of Sarcococca coriacea of Nepalese origin” (J Nat Prod, 2001).
